# Legend:
# human hepatocytes [1] = assay: Metabolite identification in human hepatocytes; format: in vitro ADME; conditions: 5-MeO-DMT 10 μM, up to 120 minutes
# Protocol: All samples were stored at −80° C. (nominal) prior to analysis.
# Appropriate blank and control samples were also analysed. […] (nominal).
# human hepatocytes [2] = assay: Metabolic stability in Hμrel human hepatocyte co-culture; format: in vitro ADME
# Protocol: The metabolic stability of 5-MIAA and 5-methoxytryptophol was investigated in a Hμrel co-culture assay with human hepatocytes (Hμrel HumanPool™, primary hepatic co-culture model from Visikol Inc.).
# The incubations were performed using 1 and 10 μM initial concentrations and sampling at 0, 1, 2, 4, 8, 24, 48, and 72 hours (h) time points. The samples were analysed using UPLC/QE-orbitrap-MS.
# The remaining LC/MS peak areas detected for test compounds after each incubation time point with Hμrel co-culture assay, relative to corresponding 0 min incubation samples, are shown in the tables below.
substance,measurement,setting,value
5-Methoxyindole acetic acid [5-MIAA],relative proportion of compounds identified,human hepatocytes [1],61%
same,relative LC/MS peak area,"human hepatocytes [2]; 1 μM, hepatocytes, 0 h",100%
same,relative LC/MS peak area,"human hepatocytes [2]; 1 μM, hepatocytes, 1 h",98%
same,relative LC/MS peak area,"human hepatocytes [2]; 1 μM, hepatocytes, 2 h",100%
same,relative LC/MS peak area,"human hepatocytes [2]; 1 μM, hepatocytes, 4 h",99%
same,relative LC/MS peak area,"human hepatocytes [2]; 1 μM, hepatocytes, 8 h",95%
same,relative LC/MS peak area,"human hepatocytes [2]; 1 μM, hepatocytes, 24 h",99%
same,relative LC/MS peak area,"human hepatocytes [2]; 1 μM, hepatocytes, 48 h",88%
same,relative LC/MS peak area,"human hepatocytes [2]; 1 μM, hepatocytes, 72 h",82%
same,half-life,"human hepatocytes [2]; 1 μM, human hepatocytes",15 400 min
same,relative LC/MS peak area,"human hepatocytes [2]; 1 μM, stromal cells, 0 h",100%
same,relative LC/MS peak area,"human hepatocytes [2]; 1 μM, stromal cells, 4 h",103%
same,relative LC/MS peak area,"human hepatocytes [2]; 1 μM, stromal cells, 8 h",107%
same,relative LC/MS peak area,"human hepatocytes [2]; 1 μM, stromal cells, 24 h",108%
same,relative LC/MS peak area,"human hepatocytes [2]; 1 μM, stromal cells, 48 h",111%
same,relative LC/MS peak area,"human hepatocytes [2]; 1 μM, stromal cells, 72 h",135%
same,relative LC/MS peak area,"human hepatocytes [2]; 10 μM, hepatocytes, 0 h",100%
same,relative LC/MS peak area,"human hepatocytes [2]; 10 μM, hepatocytes, 1 h",97%
same,relative LC/MS peak area,"human hepatocytes [2]; 10 μM, hepatocytes, 2 h",100%
same,relative LC/MS peak area,"human hepatocytes [2]; 10 μM, hepatocytes, 4 h",103%
same,relative LC/MS peak area,"human hepatocytes [2]; 10 μM, hepatocytes, 8 h",96%
same,relative LC/MS peak area,"human hepatocytes [2]; 10 μM, hepatocytes, 24 h",96%
same,relative LC/MS peak area,"human hepatocytes [2]; 10 μM, hepatocytes, 48 h",86%
same,relative LC/MS peak area,"human hepatocytes [2]; 10 μM, hepatocytes, 72 h",75%
same,relative LC/MS peak area,"human hepatocytes [2]; 10 μM, stromal cells, 0 h",100%
same,relative LC/MS peak area,"human hepatocytes [2]; 10 μM, stromal cells, 4 h",101%
same,relative LC/MS peak area,"human hepatocytes [2]; 10 μM, stromal cells, 8 h",106%
same,relative LC/MS peak area,"human hepatocytes [2]; 10 μM, stromal cells, 24 h",97%
same,relative LC/MS peak area,"human hepatocytes [2]; 10 μM, stromal cells, 48 h",103%
same,relative LC/MS peak area,"human hepatocytes [2]; 10 μM, stromal cells, 72 h",115%

# From patent US20250170099A1, “TREATMENT OF POSTNATAL DEPRESSION” (GH RESEARCH IRELAND LIMITED, priority 2022, published 2025)
